Experimental data from ChEMBL document CHEMBL1146154, “Inhibitors of Plasmepsin II-potential antimalarial agents” (Bioorg Med Chem Lett, 2006).

The compounds below were run on Plasmodium falciparum (assay: Ratio of IC50 for antimalarial activity to IC50 for PM2 inhibition).
Type: functional
`CCCCCc1ccc(C(=O)N(CCN(CCCC)CCCC)Cc2ccc(-c3ccccc3)cn2)cc1` gave a Ratio IC50 of under 1. Compound `CCCCCc1ccc(C(=O)N(CCN(CCCC)CCCC)Cc2ccc(-c3ccc4c(c3)OCO4)cn2)cc1` has a Ratio IC50 of under 1. Compound `CCCCCc1ccc(C(=O)N(Cc2ccc(-c3ccc(CC(=O)OC)cc3)cc2)C2CCN(CCC(C)C)CC2)cc1` has a Ratio IC50 of over 10. `CCCCCc1ccc(C(=O)N(CCN(CCCC)CCCC)Cc2ccc(-c3ccc4c(c3)OCO4)cc2)cc1` gave a Ratio IC50 of over 10.
